Measured values as given in BindingDB's records for doi:10.1016/s0014-2999(99)00610-x (Hungarian Academy of Sciences, 1999).

Protein sequences, listed by entry. Tags and fused reporters are not part of them.
UniProt P33535, whole entry: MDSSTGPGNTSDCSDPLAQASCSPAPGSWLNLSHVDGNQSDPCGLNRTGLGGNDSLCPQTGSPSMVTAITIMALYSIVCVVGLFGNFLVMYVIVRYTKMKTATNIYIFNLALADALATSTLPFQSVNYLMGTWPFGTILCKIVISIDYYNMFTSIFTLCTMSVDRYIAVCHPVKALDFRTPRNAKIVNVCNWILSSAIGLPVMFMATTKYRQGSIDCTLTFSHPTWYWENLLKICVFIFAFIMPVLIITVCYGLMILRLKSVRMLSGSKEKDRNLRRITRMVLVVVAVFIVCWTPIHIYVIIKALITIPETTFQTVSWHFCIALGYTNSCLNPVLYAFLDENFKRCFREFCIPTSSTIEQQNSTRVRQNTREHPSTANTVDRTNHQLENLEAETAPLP

Target: Mu-type opioid receptor (Rattus norvegicus, UniProt P33535)

## C[C@@H](NC(=O)[C@@H](N)Cc1ccc(O)cc1)C(=O)NCC(=O)N(C)[C@@H](Cc1ccccc1)C(=O)NCCO [[tyrosyl-3,5-3H(N)]-D-Ala2-Mephe4-glyol5-enkephalin]
  Ki: 1.1 nM
